Source: ChEMBL document CHEMBL1130155, “Synthesis and structure-activity relationships of potent thrombin inhibitors: piperazides of 3-amidinophenylalanine” (J Med Chem, 1997)

Sequences of proteins named here, by UniProt entry; tags and fusion partners are left off. Residues count along the entry.
UniProt P00747, 97-580 limits assumed: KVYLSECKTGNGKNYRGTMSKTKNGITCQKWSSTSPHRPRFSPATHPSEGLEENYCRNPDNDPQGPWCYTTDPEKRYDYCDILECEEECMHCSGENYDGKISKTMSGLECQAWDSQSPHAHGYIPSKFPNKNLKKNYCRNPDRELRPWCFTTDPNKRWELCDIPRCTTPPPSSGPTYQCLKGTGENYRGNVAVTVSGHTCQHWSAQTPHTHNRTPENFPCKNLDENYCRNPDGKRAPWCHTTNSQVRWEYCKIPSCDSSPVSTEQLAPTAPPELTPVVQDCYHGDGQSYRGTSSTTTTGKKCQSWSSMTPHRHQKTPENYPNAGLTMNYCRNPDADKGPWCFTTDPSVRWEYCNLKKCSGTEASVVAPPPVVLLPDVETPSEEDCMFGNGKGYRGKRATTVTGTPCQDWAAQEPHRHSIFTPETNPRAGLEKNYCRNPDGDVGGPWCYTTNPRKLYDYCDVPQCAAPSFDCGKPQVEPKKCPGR
UniProt P00747, 581-810 limits assumed: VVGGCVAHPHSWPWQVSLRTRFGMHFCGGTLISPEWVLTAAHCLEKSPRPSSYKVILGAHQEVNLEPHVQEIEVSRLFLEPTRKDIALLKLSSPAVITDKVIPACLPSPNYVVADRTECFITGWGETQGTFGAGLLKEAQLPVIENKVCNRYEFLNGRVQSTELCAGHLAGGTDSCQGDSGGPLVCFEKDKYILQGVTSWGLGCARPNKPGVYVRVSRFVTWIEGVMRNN

Experiments:
Prothrombin = Prothrombin (Bos taurus, UniProt P00735)
Plasminogen = Plasminogen (Homo sapiens, UniProt P00747); experiment: Inhibitory activity against Plasmin.

| Compound | Ki (Prothrombin) [nM] | Ki (Plasminogen) [nM] |
| --- | --- | --- |
| CC(=O)N1CCN(C(=O)[C@H](Cc2cccc(C(=N)N)c2)NS(=O)(=O)c2ccc3ccccc3c2)CC1 | 1900 |  |
| CS(=O)(=O)N1CCN(C(=O)[C@@H](Cc2cccc(C(=N)N)c2)NS(=O)(=O)c2ccc3ccccc3c2)CC1 | 2.1 |  |
| CC(=O)N1CCN(C(=O)[C@@H](Cc2cccc(C(=N)N)c2)NS(=O)(=O)c2ccc3ccccc3c2)CC1 | 12 |  |
| CS(=O)(=O)N1CCN(C(=O)[C@H](Cc2cccc(C(=N)N)c2)NS(=O)(=O)c2ccc3ccccc3c2)CC1 | 490 |  |
| N=C(N)c1ccc(C[C@@H](NC(=O)CNS(=O)(=O)c2ccc3ccccc3c2)C(=O)N2CCCCC2)cc1 |  | 30000 |
